## scFv variants of Ab-14 (light chain) against a SARS-CoV-2 spike peptide

The target is the same throughout: PDVDLGDISGINAS, from the HR2 region of SARS-CoV-2 spike.

Parent: Ab-14, a human scFv built as VH, a (GGGGS)3 linker, VL. Only the CDRs of the light chain vary.
VH: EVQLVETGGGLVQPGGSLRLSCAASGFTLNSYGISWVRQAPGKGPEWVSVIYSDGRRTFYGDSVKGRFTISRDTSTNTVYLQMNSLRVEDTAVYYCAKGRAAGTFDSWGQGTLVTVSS
VL: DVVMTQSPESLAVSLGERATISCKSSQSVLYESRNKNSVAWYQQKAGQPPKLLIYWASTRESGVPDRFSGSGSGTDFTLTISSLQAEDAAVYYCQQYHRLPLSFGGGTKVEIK

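In library AAYL50, one, two or three CDR residues were substituted; doubles and triples were drawn at random. The scFvs were displayed on barcoded MATa yeast, the peptide on MATalpha yeast. Pairs that bind mate more often; barcode pairs of the diploids are counted by sequencing. The ratio of observed to expected reads was calibrated, replicate by replicate, on BCL2-family standards whose Kd was known from biolayer interferometry. Mating was done three times.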

Variants are written as CDR1, CDR2 and CDR3 of the light chain (limits as in the source). Parent: KSSQSVLYESRNKNSVA, WASTRES, QQYHRLPLS. Affinities are written as log10 Kd with Kd in nM; a lower number is a better binder. Averages over replicates are reported, and they cover detected replicates only. "nd" marks a missing value. The strain was present, yet no cells mated with the target were sequenced in any replicate, which points to weak or no binding.

KSSQSVLMEQRNKNSVA / WASTRES / QQYHRLPLS: 0.47 (3 of 3 replicates; controls 0 of 9).
KSSQSVLYESSNKNSVA / WAGTRES / QQYHRLFLS: 1.60 (3 of 3 replicates; controls 0 of 9).
KSFQSVLYESRNQNSVA / WASTRES / QDYHRLPLS: 1.52 (3 of 3 replicates; controls 4 of 9).
KLSQSVLYESRNKNSVA / WASTRES / QQYHRLPLC: 1.65 (3 of 3 replicates; controls 1 of 9).
KSSQPVLYESRNKNSVA / WISTRES / QQYHRLPLS: 3.25 (3 of 3 replicates; controls 4 of 9).
KSSQSVLHESRNKNSVA / DASTRQS / QQYHRLPLS: 0.84 (3 of 3 replicates; controls 1 of 9).
KSSQSVLYESRNKNSNA / MASTRES / QQYHCLPLS: 3.20 (1 of 3 replicates; controls 1 of 9).
KSSQSVLYESRNKNSVA / WAFTRES / EQYHRLMLS: nd (0 of 3 replicates; controls 0 of 9).
KSSYSVLYESRNKNSVP / WASTRES / QKYHRLPLS: 4.89 (1 of 3 replicates; controls 4 of 9).
SSSQSVLYESRNKNSVA / WASTDES / QQYRRLPLS: 3.27 (1 of 3 replicates; controls 2 of 9).
KFSQSVLYESRNKQSVA / WASTRES / QQQHRLPLS: 0.78 (3 of 3 replicates; controls 0 of 9).
KSSQSVLYESRNKFSVA / GASERES / QQYHRLPLS: 0.50 (3 of 3 replicates; controls 1 of 9).
KSSQSVLYESRNKNSVA / WQSTPES / QQYQRLPLS: 5.18 (2 of 3 replicates; controls 4 of 9).
KSSQSVLYESRNKLSVA / WASTRES / QAYTRLPLS: 2.68 (3 of 3 replicates; controls 2 of 9).
KSSQSVLYESRNKFNGA / WASTRES / QQYHRLPLS: 4.13 (1 of 3 replicates; controls 0 of 9).
KSSQSVLYEPRNKNSVA / WASTRKS / QQYHRLRLS: nd (0 of 3 replicates; controls 0 of 9).
ASSQSHLYESRNKNSVA / WASSRES / QQYHRLPLS: 3.16 (2 of 3 replicates; controls 2 of 9).
KSSQSVLYESRNKNNVA / WAWTRES / DQYHRLPLS: 2.91 (3 of 3 replicates; controls 0 of 9).
KSSQSVLYESRNKNSVA / WNSARES / QQYHRLPLS: 2.96 (1 of 3 replicates; controls 2 of 9).
KSSQSVGYESRNKQSVA / WASTRES / QQYHRLPLI: 1.52 (3 of 3 replicates; controls 2 of 9).
KSSQSVNIESRNKNSVA / WTSTRES / QQYHRLPLS: 1.50 (3 of 3 replicates; controls 2 of 9).

The remaining entries, values ahead:

0.73 (3 of 3 replicates; controls 1 of 9) for KSSQSVQGESRNKNSLA / WASTRES / QQYHRLPLS.
2.28 (3 of 3 replicates; controls 4 of 9) for KSSQSVLYESRNKNSVA / WARHREP / QQYHRLPLS.
1.85 (2 of 3 replicates; controls 0 of 9) for KSSQSWLYESRNKASVA / WAQTRES / QQYHRLPLS.
1.53 (3 of 3 replicates; controls 0 of 9) for KSSKSVNYESRNKNSVA / WAHTRES / QQYHRLPLS.
4.75 (1 of 3 replicates; controls 2 of 9) for KSSQSVLYENRNKNSVA / WASTRES / QQYHRSALS.
3.15 (3 of 3 replicates; controls 1 of 9) for KSSQSVLYESRNLNSVA / LASTRER / QQYHRLPLS.
3.16 (3 of 3 replicates; controls 1 of 9) for KSSQSWLYESRNKNSVA / WASTRES / QQYHRLPVS.
4.65 (1 of 3 replicates; controls 1 of 9) for KSSQSVLYESRFKNTVA / WASTRES / QRYHRLPLS.
nd (0 of 3 replicates; controls 0 of 9) for WSSQSVLYCSRNKNSVA / WASTRES / QQYHRLNLS.
1.97 (3 of 3 replicates; controls 1 of 9) for KTSQSVLYESRNKNSVA / WASNRES / QQYHLLPLS.
3.50 (2 of 3 replicates; controls 7 of 9) for KSSQSFLYESRNKNSVA / WAETDES / QQYHRLPLS.
3.09 (1 of 3 replicates; controls 1 of 9) for KSSQSVFYESWNKNSVA / WASTRES / QQYHRLNLS.
4.91 (2 of 3 replicates; controls 1 of 9) for KESQSVLYESRNKNRVA / WAPTRES / QQYHRLPLS.
nd (0 of 3 replicates; controls 0 of 9) for KSSQSVLYESINKNSVA / WASWRES / QQYHRLCLS.
nd (0 of 3 replicates; controls 0 of 9) for KSSQSVLYESLNKNSVA / WASTRLS / QQYKRLPLS.
5.14 (1 of 3 replicates; controls 4 of 9) for KSSQSVLYPSRNKNSVA / WASTRES / RQYHRLPGS.
0.86 (3 of 3 replicates; controls 4 of 9) for KYSQDVLYESRNKNSVA / WASTREM / QQYHRLPLS.
4.44 (3 of 3 replicates; controls 6 of 9) for KSSQSVLYSSRNKNSVA / WQSTRES / QQYHRLPPS.
nd (0 of 3 replicates; controls 0 of 9) for KSSWSVLYESRNKNSVA / WASTRES / QQYHRFPLS.
1.43 (1 of 3 replicates; controls 0 of 9) for KSSKSVLYESRFKNSVA / WASTRES / QQYHRLPLY.
1.21 (3 of 3 replicates; controls 3 of 9) for KSSQSVLYESRNKNSVA / WASTREW / QNYHRLPRS.

For reference, 2 entries of the list once more:

Variant KYSQDVLYESRNKNSVA / WASTREM / QQYHRLPLS showed 0.86 (3 of 3 replicates; controls 4 of 9).
Variant KSSQSVLYESRNKLSVA / WASTRES / QAYTRLPLS showed 2.68 (3 of 3 replicates; controls 2 of 9).

Background: pairings of library AAYL50 with three empty control strains gave a value in 18% of cases (median 4.19, 5th percentile 2.99). Values in that range, when seen in few replicates, are hard to tell from nonspecific mating. For each scFv, signals with the empty controls are counted beside the result. For reference, the parent read 0.65 as the reference entry and 1.68 as a member of this library.

From the AlphaSeq antibody data of Engelhart et al. 2022 (doi:10.1038/s41597-022-01779-4), copy in the FLAb collection.